Data reported in ChEMBL document CHEMBL3885861, “Open TG-GATES”.

What was measured:
Rattus norvegicus [1] = organism: Rattus norvegicus; assay: Open TG-GATES - Regimen: Daily Repeat; assay type: toxicity, organism-based, Sprague-Dawley; parameters: regimen Daily Repeat, gender Male, age 6 weeks; details: in vivo; for LIVER: tissue Liver
Rattus norvegicus [2] = organism: Rattus norvegicus; assay: Open TG-GATES - Regimen: Single; assay type: toxicity, organism-based, Sprague-Dawley; parameters: regimen Single, gender Male, age 6 weeks; details: in vivo; for MCH / Hb / MCHC: tissue Blood
[3] = iv, 10 mg/kg, […], tissue Plasma, route intravenous injection, dose level High, time 7 day
[4] = iv, 0 mg/kg, 6 h, route intravenous injection, dose level Control
[5] = iv, 30 mg/kg, 3 h, route intravenous injection, dose level Middle
[6] = iv, 30 mg/kg, 6 h, tissue Plasma, route intravenous injection, dose level Middle

Compound: CS(=O)(=O)Nc1ccc([N+](=O)[O-])cc1Oc1ccccc1 [NIMESULIDE]
- MCH (Rattus norvegicus [1]; po, 0 mg/kg, […], tissue Blood, route gavage, dose level Control, time 7 day): 22.1 pg
- MCH (Rattus norvegicus [1]; po, 0 mg/kg, […], tissue Blood, route gavage, dose level Control, time 28 day): 19.9 pg
- MCH (Rattus norvegicus [1]; po, 10 mg/kg, 72 h, tissue Blood, route gavage, dose level Low, time 3 day): 21.5 pg
- MCH (Rattus norvegicus [1]; po, 10 mg/kg, […], tissue Blood, route gavage, dose level Low, time 7 day): 21.1 pg
- MCH (Rattus norvegicus [1]; po, 10 mg/kg, […], tissue Blood, route gavage, dose level Low, time 14 day): 21.5 pg
- MCH (Rattus norvegicus [1]; po, 10 mg/kg, […], tissue Blood, route gavage, dose level Low, time 28 day): 19.5 pg
- MCH (Rattus norvegicus [1]; po, 30 mg/kg, 72 h, tissue Blood, route gavage, dose level Middle, time 3 day): 21.5 pg
- MCH (Rattus norvegicus [1]; po, 30 mg/kg, […], tissue Blood, route gavage, dose level Middle, time 7 day): 21.4 pg
- MCH (Rattus norvegicus [1]; po, 30 mg/kg, […], tissue Blood, route gavage, dose level Middle, time 14 day): 21.2 pg
- MCH (Rattus norvegicus [1]; po, 30 mg/kg, […], tissue Blood, route gavage, dose level Middle, time 28 day): 19.8 pg
- MCH (Rattus norvegicus [1]; po, 100 mg/kg, 72 h, tissue Blood, route gavage, dose level High, time 3 day): 21.8 pg
- MCH (Rattus norvegicus [1]; po, 100 mg/kg, […], tissue Blood, route gavage, dose level High, time 7 day): 21.2 pg
- MCH (Rattus norvegicus [1]; po, 100 mg/kg, […], tissue Blood, route gavage, dose level High, time 14 day): 22.6 pg
- MCH (Rattus norvegicus [1]; po, 100 mg/kg, […], tissue Blood, route gavage, dose level High, time 28 day): 20 pg
- MCH (Rattus norvegicus [2]; po, 0 mg/kg, 3 h, route gavage, dose level Control): 22 pg
- MCH (Rattus norvegicus [2]; po, 0 mg/kg, 6 h, route gavage, dose level Control): 22 pg
- MCH (Rattus norvegicus [2]; po, 0 mg/kg, 9 h, route gavage, dose level Control): 21.8 pg
- MCH (Rattus norvegicus [2]; po, 0 mg/kg, 24 h, route gavage, dose level Control): 22.2 pg
- MCH (Rattus norvegicus [2]; po, 30 mg/kg, 6 h, route gavage, dose level Low): 22.2 pg
- MCH (Rattus norvegicus [2]; po, 30 mg/kg, 9 h, route gavage, dose level Low): 22.2 pg
- MCH (Rattus norvegicus [2]; po, 100 mg/kg, 3 h, route gavage, dose level Middle): 22.6 pg
- MCH (Rattus norvegicus [2]; po, 100 mg/kg, 6 h, route gavage, dose level Middle): 22 pg
- MCH (Rattus norvegicus [2]; po, 100 mg/kg, 9 h, route gavage, dose level Middle): 21.9 pg
- MCH (Rattus norvegicus [2]; po, 100 mg/kg, 24 h, route gavage, dose level Middle): 21.6 pg
- MCH (Rattus norvegicus [2]; po, 300 mg/kg, 3 h, route gavage, dose level High): 22.3 pg
- MCH (Rattus norvegicus [2]; po, 300 mg/kg, 6 h, route gavage, dose level High): 21.4 pg
- MCH (Rattus norvegicus [2]; po, 300 mg/kg, 9 h, route gavage, dose level High): 21.9 pg
- MCH (Rattus norvegicus [2]; po, 300 mg/kg, 24 h, route gavage, dose level High): 21.4 pg

Compound: CARBOPLATIN
- MCH (Rattus norvegicus [1]; iv, 0 mg/kg, 72 h, tissue Blood, route intravenous injection, dose level Control, time 3 day): 20.5 pg
- MCHC (Rattus norvegicus [1]; iv, 0 mg/kg, […], tissue Blood, route intravenous injection, dose level Control, time 28 day): 35.2%
- Ca (Rattus norvegicus [1]; iv, 0 mg/kg, […], tissue Plasma, route intravenous injection, dose level Control, time 7 day): 10.8 mg/dL
- Ca (Rattus norvegicus [1]; iv, 0 mg/kg, […], tissue Plasma, route intravenous injection, dose level Control, time 14 day): 10.8 mg/dL
- GLC (Rattus norvegicus [1]; iv, 0 mg/kg, […], tissue Plasma, route intravenous injection, dose level Control, time 28 day): 187.8 mg/dL
- Hb (Rattus norvegicus [1]; iv, 1 mg/kg, […], tissue Blood, route intravenous injection, dose level Low, time 7 day): 13.2 g/dL
- LIVER (Rattus norvegicus [1]; iv, 1 mg/kg, […], route intravenous injection, dose level Low, time 14 day): 12.4 g
- Ca (Rattus norvegicus [1]; iv, 1 mg/kg, […], tissue Plasma, route intravenous injection, dose level Low, time 14 day): 10.8 mg/dL
- Ca (Rattus norvegicus [1]; iv, 3 mg/kg, 72 h, tissue Plasma, route intravenous injection, dose level Middle, time 3 day): 10.8 mg/dL
- Neu (Rattus norvegicus [1]; iv, 3 mg/kg, […], tissue Blood, route intravenous injection, dose level Middle, time 28 day): 12.4%
- MCH (Rattus norvegicus [1]; iv, 10 mg/kg, 72 h, tissue Blood, route intravenous injection, dose level High, time 3 day): 20.5 pg
- LDH (Rattus norvegicus [1]; iv, 10 mg/kg, 72 h, tissue Plasma, route intravenous injection, dose level High, time 3 day): 192.2 IU/L
- LIVER (Rattus norvegicus [1]; iv, 10 mg/kg, […], route intravenous injection, dose level High, time 28 day): 11.1 g
- Ca (Rattus norvegicus [1]; [3]): 10.8 mg/dL
- LDH (Rattus norvegicus [1]; [3]): 192 IU/L
- Ca (Rattus norvegicus [1]; iv, 10 mg/kg, […], tissue Plasma, route intravenous injection, dose level High, time 14 day): 10.8 mg/dL
- Hb (Rattus norvegicus [2]; [4]): 13.3 g/dL
- MCHC (Rattus norvegicus [2]; [4]): 32.3%
- MCH (Rattus norvegicus [2]; iv, 0 mg/kg, 9 h, route intravenous injection, dose level Control): 20.5 pg
- Hb (Rattus norvegicus [2]; iv, 10 mg/kg, 6 h, route intravenous injection, dose level Low): 13.3 g/dL
- MCH (Rattus norvegicus [2]; iv, 10 mg/kg, 24 h, route intravenous injection, dose level Low): 20.5 pg
- MCH (Rattus norvegicus [2]; [5]): 20.5 pg
- MCHC (Rattus norvegicus [2]; [5]): 32.3%
- MCH (Rattus norvegicus [2]; iv, 30 mg/kg, 6 h, route intravenous injection, dose level Middle): 20.5 pg
- BUN (Rattus norvegicus [2]; [6]): 10.2 mg/dL
- LDH (Rattus norvegicus [2]; [6]): 183.6 IU/L
- Hb (Rattus norvegicus [2]; iv, 100 mg/kg, 3 h, route intravenous injection, dose level High): 13.2 g/dL
- Hb (Rattus norvegicus [2]; iv, 100 mg/kg, 6 h, route intravenous injection, dose level High): 13.3 g/dL
- Ca (Rattus norvegicus [2]; iv, 100 mg/kg, 9 h, tissue Plasma, route intravenous injection, dose level High): 10.8 mg/dL
- Ca (Rattus norvegicus [2]; iv, 100 mg/kg, 24 h, tissue Plasma, route intravenous injection, dose level High): 10.8 mg/dL
